Assay: Peroxidation of multilamellar phosphatidylcholine (PC) liposomes induced by UVA, TBA assay (TBARS)
Conditions: 100 μM compound, 3.5 mM PC liposomes, 275 kJ/m^2 UVA, TBARS at 535 nm, FIG. 4

For `CC1(C)CC(O)CC(C)(C)N1[O]` [TEMPOL, 4-hydroxy-2,2,6,6,-tetramethyl-piperidine-1-oxyl], the “inhibition of UVA-induced lipid peroxidation” value was ~60%.
